Measured affinities in a library of Ab-95 light chain variants

Target: peptide PDVDLGDISGINAS, taken from heptad repeat 2 (HR2) of SARS-CoV-2 spike.

Parent: Ab-95, a human scFv built as VH, the linker GGGGSGGGGSGGGGS, VL. Only the CDRs of the light chain vary.
VH: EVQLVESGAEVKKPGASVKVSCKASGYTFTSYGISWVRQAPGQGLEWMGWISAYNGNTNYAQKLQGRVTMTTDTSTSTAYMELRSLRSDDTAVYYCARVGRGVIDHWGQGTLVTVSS
VL: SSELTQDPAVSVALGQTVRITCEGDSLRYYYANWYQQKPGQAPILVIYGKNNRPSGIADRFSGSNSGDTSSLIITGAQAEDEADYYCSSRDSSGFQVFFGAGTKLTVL

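AAYL52 was designed without a model: most single CDR substitutions and a random sample of double and triple ones. The assay is AlphaSeq: two haploid yeast populations carry antibody and antigen on their surface. Pairs that bind mate more often; barcode pairs of the diploids are counted by sequencing. Read counts were normalised to the haploid input and turned into Kd by a linear fit to BCL2-family pairs of known affinity, for each replicate. There are three technical replicates.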

Substitutions are numbered in sequence along the VL above, starting at 1 (not Kabat).
Values are apparent Kd, the geometric mean of the replicates that gave a signal; lower means stronger binding.
"nd" marks a missing value. The strain was present, yet no cells mated with the target were sequenced in any replicate, which points to weak or no binding.

| # | changes | Kd | replicates with signal | signal with controls |
|---|---|---|---|---|
| 1 | E23C Y30W N51Q | 1.4 µM | 3/3 | 3/9 |
| 2 | S26Q S93Y F98C | 2.3 µM | 3/3 | 1/9 |
| 3 | G49E S92Q S93P | 1.2 µM | 2/3 | 2/9 |
| 4 | K50W S88A D91G | nd | 0/3 | 3/9 |
| 5 | E23T G24H G49T | 24 µM | 2/3 | 4/9 |
| 6 | Y30V G94V V97A | 130 nM | 3/3 | 1/9 |
| 7 | Y30C D91M V97D | 11 µM | 1/3 | 3/9 |
| 8 | R28G S55W | 190 nM | 3/3 | 5/9 |
| 9 | Y31C G49D S93V | 1.2 µM | 3/3 | 3/9 |
| 10 | E23L D25E V97C | 1.8 µM | 1/3 | 0/9 |
| 11 | D25K G49M N51Y | 14 µM | 1/3 | 2/9 |
| 12 | S26N G49E G94A | 67 µM | 2/3 | 5/9 |
| 13 | G49V S89M F98T | 2.6 µM | 3/3 | 4/9 |
| 14 | E23G S26H S88C | 620 nM | 3/3 | 4/9 |
| 15 | K50M S89K S93V | nd | 0/3 | 0/9 |
| 16 | E23A L27K S92E | 7.1 µM | 3/3 | 1/9 |
| 17 | Y31K F98K | 1.2 µM | 3/3 | 5/9 |
| 18 | N51P N52K P54K | 63 µM | 2/3 | 2/9 |
| 19 | S89W Q96L | 760 nM | 3/3 | 5/9 |
| 20 | A32M S88Q F98K | 13 µM | 1/3 | 1/9 |
| 21 | Y30E N52M S92R | 8.7 nM | 3/3 | 4/9 |
| 22 | S55K S88F S93V | 5.4 µM | 2/3 | 3/9 |
| 23 | S26K R90I Q96P | nd | 0/3 | 3/9 |
| 24 | S26E Y29P P54N | 72 nM | 3/3 | 4/9 |
| 25 | N51I N52C Q96I | 33 µM | 2/3 | 1/9 |
| 26 | E23S G49D G94H | 690 nM | 3/3 | 2/9 |
| 27 | G24L L27Y A32W | 180 nM | 3/3 | 2/9 |
| 28 | G24T P54R S92G | 59 µM | 1/3 | 2/9 |
| 29 | A32I N52G S88D | 18 µM | 1/3 | 5/9 |
| 30 | E23Y D25W R53I | nd | 0/3 | 3/9 |
| 31 | D25T R53M D91K | 4.5 µM | 3/3 | 3/9 |
| 32 | D25S P54T | 510 nM | 3/3 | 2/9 |
| 33 | K50L G94F F95V | 570 nM | 3/3 | 2/9 |
| 34 | A32T N33H | 5.7 µM | 2/3 | 1/9 |
| 35 | Y29G G49W S88M | 12 µM | 3/3 | 1/9 |
| 36 | Y30W N51M Q96L | 29 µM | 3/3 | 5/9 |
| 37 | S89W F95E | 350 nM | 3/3 | 5/9 |
| 38 | D25I K50D F98E | 48 nM | 3/3 | 1/9 |
| 39 | S88C S93M G94W | 180 nM | 3/3 | 0/9 |
| 40 | S89P F95H Q96D | 5.2 µM | 2/3 | 4/9 |
| 41 | Y30F R53E D91C | 4.2 µM | 2/3 | 3/9 |
| 42 | Y29A R53E Q96F | 8.3 µM | 3/3 | 7/9 |
| 43 | E23I Y31M R53W | 2.9 µM | 3/3 | 2/9 |
| 44 | E23S A32Q N51Y | nd | 0/3 | 3/9 |
| 45 | L27H Y30N K50P | 33 nM | 3/3 | 2/9 |
| 46 | E23Y G24N S93I | 4.0 µM | 2/3 | 5/9 |
| 47 | S26F K50A P54E | 2.0 µM | 2/3 | 2/9 |
| 48 | Y29C S55L S92V | 5.4 µM | 2/3 | 2/9 |
| 49 | D25V S89Y D91H | 540 nM | 3/3 | 3/9 |
| 50 | S26W N52R S88H | 18 µM | 2/3 | 5/9 |
| 51 | G94R Q96C F98K | nd | 0/3 | 1/9 |
| 52 | Y29L S92C F98M | 66 µM | 3/3 | 3/9 |
| 53 | N52K S55C V97S | 1.2 µM | 3/3 | 3/9 |
| 54 | G94Q F95R F98Q | 310 nM | 3/3 | 3/9 |
| 55 | R28H Y29P S88D | 2.2 µM | 3/3 | 4/9 |
| 56 | N33R D91T | nd | 0/3 | 1/9 |
| 57 | D25L Y29K Y31G | 400 nM | 3/3 | 7/9 |
| 58 | G49A D91M F98Q | 15 µM | 2/3 | 1/9 |
| 59 | S26Q D91P F95L | 8.9 µM | 2/3 | 5/9 |
| 60 | N52Y S55E | 100 nM | 3/3 | 4/9 |
| 61 | S26E Y31V K50R | 3.4 µM | 3/3 | 5/9 |
| 62 | N52E R53Q D91V | 490 µM | 1/3 | 3/9 |

Three control strains display no target. For library AAYL52, 28% of the pairings with them gave a signal, with a median of 8.2 µM and one signal in twenty below 800 nM, so weak values seen in few replicates may be background. Also given: how often the same scFv was detected with the empty control strains.

The measurements come from Engelhart et al. 2022 (doi:10.1038/s41597-022-01779-4) through the FLAb antibody collection.